Source: patent US20130216547A1 (Regeneron, published 2013)

Columns and labels:
mouse big-ET-1 = target: T1, mouse big-ET-1 (mouse); test: cell-based or functional assay
T1 peptide: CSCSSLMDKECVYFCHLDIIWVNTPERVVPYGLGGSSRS

[1] = target: T2, human big-endothelin-1 (big-ET-1) (human); test: cell-based or functional assay
T2 peptide: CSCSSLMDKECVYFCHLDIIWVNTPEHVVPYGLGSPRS

[2] = target: T2, human big-endothelin-1 (big-ET-1); test: SPR (Biacore T200), 37 C, mAb capture, peptide analyte
Method: Measurements were conducted on a T200 Biacore instrument (Biacore Life Sciences division of GE Healthcare, Piscataway, N.J.). […] Peptide binding was monitored for 3 min while dissociation of mAb-bound peptide was monitored for 4 min in HBST running buffer (0.01 M HEPES pH 7.4, 0.15 M NaCl, 3 mM EDTA, 0.005% v/v Surfactant P20). Kinetic association (kₐ) and dissociation (kd) rate constants were determined by processing and fitting the data to a 1:1 binding model using Scrubber 2.0 curve fitting software.

B1: H4H6335P (antibody, V domains shown)
VH: EVQLVESGGGLVKPGGSLRLSCAASGFTFSNDWMSWVRQAPGKGLEWVGRIKRKTDGGTTDYAAPVKGRFTISRDDSKNTLYLQMNSLKTEDTAVYYCTTGGYERGGQGTLVTVSS
VL: [omitted - about 100 residues]LTFGGGTKVEIK
notes: Human IgG4 Fc (prefix H4H)
Mouse big-ET-1
  Blocking IC50(M), 20 nM mBig-ET-1 + 5 nM mECE1; 293/ETaR/NFAT-Luc luciferase: > 1e-07 M
[1]
  Blocking IC50(M), 10 nM hBig-ET-1 + 3 nM hECE1; 293/ETaR/NFAT-Luc luciferase: 6.6e-09 M
[2]
  Kd: 5.34 nM
  T½: 3 min
  koff: 0.00437 s⁻¹
  kon: 818000 M⁻¹ s⁻¹
